Assay results from patent US20130005644A1, “CYCLIC AGONISTS AND ANTAGONISTS OF C5A RECEPTORS AND G PROTEIN-COUPLED RECEPTORS” (PROMICS PTY LIMITED, priority 1997, published 2013).
Read-outs that look alike come from different tables or passages of the source.

What was measured:
[1] = target: T1, C5a receptor (Homo sapiens, UniProt P21730); assay: Myeloperoxidase release from human PMNs mediated by 100 nM C5a (antagonist potency); format: cell-based; details: for IC50: 50% inhibition of C5a (100 nM)-caused release of MPO from PMNs, mean ± SE, read-out: pD2 ± SE (antagonist potency) (converted)
T1 construct: endogenous in cells; host or cells: fresh human polymorphonuclear leukocytes (PMNs), intact cells
T1 sequence (P21730 1-350): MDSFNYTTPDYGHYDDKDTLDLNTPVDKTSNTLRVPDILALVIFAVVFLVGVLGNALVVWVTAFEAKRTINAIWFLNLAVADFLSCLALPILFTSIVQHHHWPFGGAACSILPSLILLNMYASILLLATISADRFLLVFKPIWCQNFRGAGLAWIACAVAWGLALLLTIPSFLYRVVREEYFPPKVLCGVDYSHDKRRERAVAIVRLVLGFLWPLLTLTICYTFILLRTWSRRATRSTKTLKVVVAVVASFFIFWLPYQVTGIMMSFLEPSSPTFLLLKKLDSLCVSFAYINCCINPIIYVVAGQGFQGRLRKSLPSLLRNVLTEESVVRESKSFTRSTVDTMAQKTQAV

[2] = target: T1, C5a receptor; details: read-out: PMN Enzyme Release EC50, C5a agonist analogues; cited from earlier work
[3] = test system: human fetal artery; details: C5a agonist analogues; cited from earlier work
[4] = target: T1, C5a receptor; assay: Agonist activity in human PMNs; format: cell-based
Protocol: Cells were isolated as previously described (Sanderson et al, 1995) and incubated with cytochalasin B (5 μg/mL, 15 min, 37° C.). Hank's Balanced Salt solution containing 0.15% gelatin and peptide was added on to a 96 well plate (total volume 100 μL/well), followed by 25 μL cells (4×10^6/mL). To assess the capacity of each peptide to antagonise C5a, cells were incubated for 5 min at 37° C. with each peptide, followed by addition of C5a (100 nM) and further incubation for 5 min. Then 50 μL of sodium phosphate (0.1M, pH 6.8) was added to each well, the plate was cooled to room temperature, and 25 μL of a fresh mixture of equal volumes of dimethoxybenzidine (5.7 mg/mL) and H2O2 (0.51%) was added to each well. The reaction was stopped at 10 min by addition of 2% sodium azide. Absorbances were measured at 450 nm in a Bioscan 450 plate reader, corrected for control values (no peptide), and analysed by non-linear regression.

[5] = target: T2, C5aR (Homo sapiens, UniProt P21730); details: cited from earlier work
T2 construct: endogenous in cells; host or cells: fresh human polymorphonuclear leukocytes (PMNs), intact cells
T2 sequence (P21730 1-350): T1 sequence (P21730 1-350)

[6] = target: T2, C5aR; assay: Receptor-binding assay: inhibition of 125I-C5a binding to intact human PMNs
[7] = 50% inhibition in the binding of [125I]C5a to intact PMNs, mean ± SE, read-out: pD2 ± SE (binding) (converted)

Agonist Activity ([4]; Table 5, cyclic molecules) | IC50 [6, 7] | IC50 [1] | SMILES | also measured
 |  |  | CSCC[C@H](NC(=O)[C@@H]1CCCN1C(=O)[C@H](CCCCN)NC(=O)[C@H](Cc1ccccc1)NC(=O)[C@H](CO)NC(=O)[C@@H](N)Cc1ccc(O)cc1)C(=O)N1CCC[C@H]1C(=O)N[C@@H](CC(C)C)C(=O)N[C@H](C)C(=O)N[C@@H](CCCNC(=N)N)C(=O)O [Compound 4] | Kb [1]: 0.0014 µM; EC50 [2]: 4.1 µM; EC50 [3]: 0.2 µM; Agonist Activity ([4]; dose range 0.1 nM-1 mM, human PMNs): Yes; IC50 ([5]; read-out: Binding Affinity IC50, PMN C5aR, Finch et al, 1997): 6 µM; IC50 ([5]; read-out: Receptor Affinity IC50, literature values (Finch et al, 1997; Kawai et al, 1991)): 6 µM
No |  |  | N=C(N)NCCC[C@@H]1NC(=O)[C@H](Cc2c[nH]c3ccccc23)NC(=O)[C@@H](CC2CCCCC2)NC(=O)[C@@H]2CCCN2C(=O)[C@@H](NC(=O)[C@@H](N)Cc2ccccc2)CNC1=O [Compound 13, F-[XPdChaWR]] | 
No |  |  | N=C(N)NCCC[C@H]1NC(=O)[C@H](Cc2c[nH]c3ccccc23)NC(=O)[C@@H](CC2CCCCC2)NC(=O)[C@@H]2CCCN2C(=O)[C@@H](NC(=O)[C@@H](N)Cc2ccccc2)CNC1=O [Compound 14, F-[XPdChaWr]] | 
No | 3.8 µM |  | N=C(N)NCCC[C@H]1NC(=O)[C@H](Cc2c[nH]c3ccccc23)NC(=O)[C@@H](CC2CCCCC2)NC(=O)[C@@H]2CCCN2C(=O)[C@@H](NC(=O)[C@@H](N)Cc2ccccc2)CCNC1=O [Compound 16, F-[X^2PdChaWr]] | IC50 ([6]; Table 5, cyclic molecules, read-out: Receptor Affinity): 3.7 µM
 | 9.55 µM | 19.5 µM | CC(=O)N[C@@H](Cc1ccccc1)C(=O)N[C@H]1CNC(=O)[C@@H](CCCNC(=N)N)NC(=O)[C@H](Cc2c[nH]c3ccccc23)NC(=O)[C@@H](CC2CCCCC2)NC(=O)[C@@H]2CCCN2C1=O [Compound 22, AcF-[XPdChaWr]] | 
 | 17 µM | 0.813 µM | CC(=O)N[C@@H](Cc1ccccc1)C(=O)N[C@H]1CCNC(=O)[C@@H](CCCNC(=N)N)NC(=O)[C@H](Cc2c[nH]c3ccccc23)NC(=O)[C@@H](CC2CCCCC2)NC(=O)[C@@H]2CCCN2C1=O [Compound 23, AcF-[X^2PdChaWr]] | 
 | 11 µM | 0.186 µM | CC(=O)N[C@@H](CCCCN)C(=O)N[C@@H](Cc1ccccc1)C(=O)N[C@H]1CCCNC(=O)[C@@H](CCCNC(=N)N)NC(=O)[C@H](Cc2c[nH]c3ccccc23)NC(=O)[C@@H](CC2CCCCC2)NC(=O)[C@@H]2CCCN2C1=O [Compound 24, AcKF-[OPdChaWr]] | 
 | 3.09 µM | 1.62 µM | N=C(N)NCCC[C@H]1NC(=O)[C@H](Cc2c[nH]c3ccccc23)NC(=O)[C@@H](CC2CCCCC2)NC(=O)[C@@H]2CCCN2C(=O)[C@@H](NC(=O)[C@@H](N)Cc2ccccc2)CCCNC1=O [Compound 25, F-[OPdChaWr]] | 
 | 0.0617 µM | 0.0389 µM | N=C(N)NCCC[C@@H]1NC(=O)[C@H](Cc2c[nH]c3ccccc23)NC(=O)[C@@H](CC2CCCCC2)NC(=O)[C@@H]2CCCN2C(=O)[C@@H](NC(=O)[C@@H](N)Cc2ccccc2)CCCNC1=O [Compound 27, F-[OPdChaWR]] | 
